Laboratory results: publication PMC6422423 (2019)

By UniProt entry, the sequences of proteins in these tests, tags left out. Where a name states a change or a piece, a line headed by the entry shows the natural chain unless it says otherwise.
UniProt P28336: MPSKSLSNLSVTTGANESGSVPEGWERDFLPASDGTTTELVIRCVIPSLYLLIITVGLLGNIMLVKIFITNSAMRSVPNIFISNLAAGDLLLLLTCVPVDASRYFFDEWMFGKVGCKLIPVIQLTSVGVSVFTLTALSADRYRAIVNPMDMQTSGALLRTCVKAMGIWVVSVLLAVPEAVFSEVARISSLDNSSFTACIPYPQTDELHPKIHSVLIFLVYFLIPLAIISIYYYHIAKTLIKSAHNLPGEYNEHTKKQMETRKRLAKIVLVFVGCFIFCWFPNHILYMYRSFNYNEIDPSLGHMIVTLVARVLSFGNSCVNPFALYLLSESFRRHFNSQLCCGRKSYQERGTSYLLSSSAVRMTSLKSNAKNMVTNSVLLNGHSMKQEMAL

Molecular target: neuromedin B receptor (UniProt P28336 1-390)
Assay: competition with 125I-NMB

YKIKVNPRGNLWATGHFM [neuromedin B, unlabeled ligand peptide of the radioligand binding assays]
IC50: 1.18 nM
